Assay [1] has as its target T1, Complex of Baculoviral IAP repeat-containing protein 7 [63-159,S150G] and E3 ubiquitin-protein ligase XIAP [336-348] (Homo sapiens, UniProt Q96CA5, S150G).
T1 construct: 63-159; 336-348
The assay can be described thus: Fluorescence Polarization Affinity Measurements. Particulars: pH 7.2; 22 °C. The method, then:
(§1) Samples for fluorescence polarization affinity measurements were prepared by addition of serial dilutions of target protein to each well containing antagonist and polarization probe in the buffer. Samples were read after 30-min incubation. Fluorescence polarization values were plotted as a function of the antagonist concentration, and the IC50 values were obtained by fitting the data to a four-parameter equation using KaleidaGraph software. Ki values for the antagonists were determined from the IC50 values.
In general terms: Fluorescence polarisation rises when a labelled molecule tumbles more slowly, as on binding a larger partner.

Protein sequences, listed by entry. Tags and fused reporters are not part of them. Chains listed by the source or under a name are the forms on record and can include a tag or linker. Residues count along the entry.
UniProt Q96CA5, as listed by the source S150G: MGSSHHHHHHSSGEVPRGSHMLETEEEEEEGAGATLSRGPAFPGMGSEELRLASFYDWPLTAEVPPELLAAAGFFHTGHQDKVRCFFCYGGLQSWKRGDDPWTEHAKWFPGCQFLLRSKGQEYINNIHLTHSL
UniProt P98170, 241-356: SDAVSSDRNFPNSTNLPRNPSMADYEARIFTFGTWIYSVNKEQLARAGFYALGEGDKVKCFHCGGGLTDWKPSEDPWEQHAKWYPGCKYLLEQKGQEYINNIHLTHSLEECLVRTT

The target in assay [2] is T2, E3 ubiquitin-protein ligase XIAP [241-356] (Homo sapiens, UniProt P98170).
T2 construct: 241-356
The assay can be described thus: Fluorescence Polarization Affinity Measurements. The method, then: as §1

pKi: −log10 of the molar value.

Take `CC(C)[C@H](NC(=O)[C@H](C)N)C(=O)N1CCC[C@H]1C(=O)NCC(c1ccccc1)c1ccccc1` [(2S)-1-[(2S)-2-[(2S)-2-aminopropanamido]-3-methylbutanoyl]-N-(2,2-diphenylethyl)pyrrolidine-2-carboxamide]: the figures for the pKi in assay [1] and in assay [2] were 7.37 and 6.46, respectively.

A word on the pKi: it is −log10 of the Ki, conventionally taken in molar units. Lower therefore signals a high Ki.

These data come from BindingDB's records for doi:10.1021/jm801450c (Genentech, 2009).
